System: Glycogen synthase kinase-3 alpha (Homo sapiens), P49840 [UNDEFINED MUTATION]
Assay: Inhibition of human GSK-3alpha S449A mutant (2 to end residues) at 10 uM using phospho GS2 peptide as substrate after 40 mins in presence of [gamma-33ATP] by scintillation counting method relative to control

By UniProt entry, the sequences of proteins in these tests, tags left out.
Glycogen synthase kinase-3 alpha (Homo sapiens), P49840, UniProt P49840, whole entry, looked up, stated change not applied: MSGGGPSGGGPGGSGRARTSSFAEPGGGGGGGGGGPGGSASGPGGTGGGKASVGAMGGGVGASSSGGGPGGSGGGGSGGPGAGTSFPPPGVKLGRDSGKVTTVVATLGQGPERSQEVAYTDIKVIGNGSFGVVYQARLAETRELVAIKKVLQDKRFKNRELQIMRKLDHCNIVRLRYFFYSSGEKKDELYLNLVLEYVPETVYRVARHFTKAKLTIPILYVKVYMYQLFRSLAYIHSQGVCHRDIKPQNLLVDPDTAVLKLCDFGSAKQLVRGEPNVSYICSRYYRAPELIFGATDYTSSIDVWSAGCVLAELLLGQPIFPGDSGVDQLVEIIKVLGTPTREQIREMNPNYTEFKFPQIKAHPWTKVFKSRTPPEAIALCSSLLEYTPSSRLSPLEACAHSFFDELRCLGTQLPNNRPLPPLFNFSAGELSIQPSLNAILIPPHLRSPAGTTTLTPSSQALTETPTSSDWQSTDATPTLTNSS

## CN1C(=O)NC(=O)C2C1N=C(N1CCNCC1)N2CCCc1ccccc1 (stereo unspecified)
  inhibition: 13%
